Key:
Assay in all cases: Kinase Profiling Assay
Assay type in all cases: biochemical
Conditions in all cases: peptide 100 μM
[1] = biological target: CK1γ2(h) (Homo sapiens, UniProt P78368)
Protocol: (§1) Every kinase activity measurement was conducted in duplicate.
(§2) Specifically, in these assays, a positively charged substrate is phosphorylated with a radiolabeled phosphate group from an ATP if the kinase is not inhibited by an inhibitor peptide. The positively charged substrate then is attracted to a negatively charged filter membrane, quantified with a scintillation counter, and compared to a 100% activity control.
(§3) In addition to determining the IC50 of the compound, the specificity of MK2 inhibitory peptides was assessed by examining activities of all 266 human kinases available for testing in the Millipore kinase profiling service (Table 1).

[2] = biological target: T1, MKK7β(h) (Homo sapiens, UniProt O14733)
T1 construct: purchased Millipore
T1 sequence (O14733 1-419): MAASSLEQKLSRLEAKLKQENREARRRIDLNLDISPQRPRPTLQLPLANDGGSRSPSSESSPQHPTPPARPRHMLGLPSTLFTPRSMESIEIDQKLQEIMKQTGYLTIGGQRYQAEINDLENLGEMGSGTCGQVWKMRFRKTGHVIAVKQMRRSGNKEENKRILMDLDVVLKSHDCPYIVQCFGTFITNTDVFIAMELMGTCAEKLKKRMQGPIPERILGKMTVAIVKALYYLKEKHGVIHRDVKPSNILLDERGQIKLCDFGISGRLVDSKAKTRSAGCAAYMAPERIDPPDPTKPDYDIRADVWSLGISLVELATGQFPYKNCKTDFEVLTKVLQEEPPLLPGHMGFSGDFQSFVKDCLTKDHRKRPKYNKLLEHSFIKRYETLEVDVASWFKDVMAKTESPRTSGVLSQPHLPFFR
Protocol: as §1, §2, §3

[3] = biological target: FGFR1(V561M)(h) (Homo sapiens, UniProt P11362, V561M)
Protocol: as §1, §2, §3

[4] = biological target: CK2α2(h) (Homo sapiens, UniProt P19784)
Protocol: as §1, §2, §3

[5] = biological target: Plk1(h) (Homo sapiens, UniProt P53350)
Protocol: as §1, §2, §3

[6] = biological target: PAK6(h) (Homo sapiens, UniProt Q9NQU5)
Protocol: as §1, §2, §3

[7] = biological target: Fgr(h) (Homo sapiens, UniProt P09769)
Protocol: as §1, §2, §3

[8] = biological target: T2, IGF-1R(h) (Homo sapiens, UniProt P08069)
T2 construct: purchased Millipore
Protocol: as §1, §2, §3

[9] = biological target: T3, GRK5(h) (Homo sapiens, UniProt P34947)
T3 construct: purchased Millipore
Protocol: as §1, §2, §3

[10] = biological target: CK1γ1(h) (Homo sapiens, UniProt Q9HCP0)
Protocol: as §1, §2, §3

[11] = biological target: CK1γ3(h) (Homo sapiens, UniProt Q9Y6M4)
Protocol: as §1, §2, §3

[12] = biological target: T4, JNK1α1(h) (Homo sapiens, UniProt P45983)
T4 construct: purchased Millipore
Protocol: as §1, §2, §3

[13] = biological target: FGFR2(N549H)(h) (Homo sapiens, UniProt P21802, N549H)
Protocol: as §1, §2, §3

[14] = biological target: c-RAF(h) (Homo sapiens, UniProt P04049)
Protocol: as §1, §2, §3

[15] = biological target: PAK5(h) (Homo sapiens, UniProt Q9P286)
Protocol: as §1, §2, §3

[16] = biological target: T5, JAK2(h) (Homo sapiens, UniProt O60674)
T5 construct: purchased Millipore
Protocol: as §1, §2, §3

[17] = biological target: T6, PAR-1Bα(h) (Homo sapiens, UniProt Q7KZI7)
T6 sequence (Q7KZI7 1-725 isoform Q7KZI7-4): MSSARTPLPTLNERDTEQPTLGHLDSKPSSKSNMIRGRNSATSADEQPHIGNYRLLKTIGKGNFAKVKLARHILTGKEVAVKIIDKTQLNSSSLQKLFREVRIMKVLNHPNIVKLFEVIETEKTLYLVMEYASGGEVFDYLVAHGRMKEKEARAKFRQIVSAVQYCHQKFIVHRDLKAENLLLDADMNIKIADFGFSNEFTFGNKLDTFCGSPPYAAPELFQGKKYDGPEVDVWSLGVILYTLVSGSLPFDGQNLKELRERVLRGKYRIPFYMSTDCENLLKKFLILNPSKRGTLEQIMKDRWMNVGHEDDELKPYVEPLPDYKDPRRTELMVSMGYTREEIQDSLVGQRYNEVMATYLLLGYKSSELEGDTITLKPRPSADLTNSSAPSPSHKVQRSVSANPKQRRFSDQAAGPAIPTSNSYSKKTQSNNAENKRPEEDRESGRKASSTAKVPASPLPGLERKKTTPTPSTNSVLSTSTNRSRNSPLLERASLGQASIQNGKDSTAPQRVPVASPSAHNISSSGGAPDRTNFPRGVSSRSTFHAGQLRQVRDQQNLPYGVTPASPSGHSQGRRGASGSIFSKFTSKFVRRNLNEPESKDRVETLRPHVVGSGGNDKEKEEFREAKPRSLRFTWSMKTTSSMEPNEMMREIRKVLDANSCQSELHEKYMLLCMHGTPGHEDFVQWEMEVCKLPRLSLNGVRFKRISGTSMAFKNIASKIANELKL
Protocol: as §1, §2, §3

[18] = biological target: Abl(H396P)(h) (Homo sapiens, UniProt P00519, H396P)
Protocol: as §1, §2, §3

[19] = biological target: Abl(M351T)(h) (Homo sapiens, UniProt P00519, M351T)
Protocol: as §1, §2, §3

[20] = biological target: T7, Lck(h) (Homo sapiens, UniProt P06239)
T7 construct: purchased Millipore
Protocol: as §1, §2, §3

[21] = biological target: T8, HIPK3(h) (Homo sapiens, UniProt Q9H422)
T8 construct: purchased Millipore
Protocol: as §1, §2, §3

[22] = biological target: CLK2(h) (Homo sapiens, UniProt P49760)
Protocol: as §1, §2, §3

[23] = biological target: PKA(h) (Homo sapiens, UniProt P17612)
Protocol: as §1, §2, §3

[24] = biological target: T9, Aurora-A(h) (Homo sapiens, UniProt O14965)
T9 sequence (O14965 1-403): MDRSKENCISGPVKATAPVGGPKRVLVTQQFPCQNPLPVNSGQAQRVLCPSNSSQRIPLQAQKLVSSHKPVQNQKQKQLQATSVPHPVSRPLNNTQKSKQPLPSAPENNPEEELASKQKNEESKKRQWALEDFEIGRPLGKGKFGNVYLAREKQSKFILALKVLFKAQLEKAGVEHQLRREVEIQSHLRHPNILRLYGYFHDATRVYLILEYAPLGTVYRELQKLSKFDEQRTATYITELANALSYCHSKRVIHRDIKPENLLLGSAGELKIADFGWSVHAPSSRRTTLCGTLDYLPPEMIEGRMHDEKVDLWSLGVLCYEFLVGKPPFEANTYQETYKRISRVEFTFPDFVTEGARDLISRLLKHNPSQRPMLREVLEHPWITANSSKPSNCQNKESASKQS
Protocol: as §1, §2, §3

[25] = biological target: PAK3(h) (Homo sapiens, UniProt O75914)
Protocol: as §1, §2, §3

[26] = biological target: Abl(T315I)(h) (Homo sapiens, UniProt P00519, T315I)
Protocol: as §1, §2, §3

“HRRIKAWLKKIKALARQLGVAA (Mammal) [MMI-0500]” was tested, and the “% activity” value [1] was 119%, the “% activity” value [2] was 102% and the “% activity” value [3] was 113%. For the same sequence, the “% activity” value [4] was 103%, the “% activity” value [5] was 104% and the “% activity” value [6] was 107%. For the same sequence, the “% activity” value [7] was 109%, the “% activity” value [8] was 117% and the “% activity” value [9] was 116%. For the same sequence, the “% activity” value [10] was 109%, the “% activity” value [11] was 114% and the “% activity” value [12] was 109%. For the same sequence, the “% activity” value [13] was 105%.
In the case of KAFAKLAARLYRKALARQLGVAA [MMI-0400], the “% activity” value [14] is reported as 102%, the “% activity” value [1] is reported as 114% and the “% activity” value [15] is reported as 117%. The “% activity” value [16] was 119%, the “% activity” value [17] was 109% and the “% activity” value [18] was 105%. For the same sequence, the “% activity” value [19] was 121%, the “% activity” value [5] was 119% and the “% activity” value [20] was 228%. The “% activity” value [21] was 105%, the “% activity” value [10] was 116% and the “% activity” value [22] was 116%. The “% activity” value [23] was 119%, the “% activity” value [11] was 115% and the “% activity” value [24] was 119%. For the same sequence, the “% activity” value [25] was 121%, the “% activity” value [13] was 112% and the “% activity” value [26] was 105%.
